{
  "source": "patent US6410508B1",
  "about": "(priority 1998, dated 2002)",
  "details": "for weight after six weeks: mean±sem",
  "note": "Read-outs that look alike come from different tables or passages of the source.",
  "data": [
    {"smiles": "CC[C@H](C)[C@H](NC(=O)[C@H](CO)NC(=O)[C@H](Cc1ccc(O)cc1)NC(=O)[C@H](CC(=O)O)NC(=O)[C@H](CO)NC(=O)[C@@H](NC(=O)[C@H](Cc1ccccc1)NC(=O)[C@@H](NC(=O)CNC(=O)[C@H](CCC(=O)O)NC(=O)[C@H](C)NC(=O)[C@@H](N)Cc1ccc(O)cc1)[C@@H](C)O)[C@@H](C)CC)C(=O)N[C@@H](C)C(=O)N[C@@H](CCSC)C(=O)N[C@@H](CC(=O)O)C(=O)N[C@@H](CCCCN)C(=O)N[C@H](C(=O)N[C@@H](Cc1c[nH]cn1)C(=O)N[C@@H](CCC(N)=O)C(=O)N[C@@H](CCC(N)=O)C(=O)N[C@@H](CC(=O)O)C(=O)N[C@@H](Cc1ccccc1)C(=O)N[C@H](C(=O)N[C@@H](CC(N)=O)C(=O)N[C@@H](Cc1c[nH]c2ccccc12)C(=O)N[C@@H](CC(C)C)C(=O)N[C@@H](CC(C)C)C(=O)N[C@@H](C)C(=O)N[C@@H](CCC(N)=O)C(=O)N[C@@H](CCCCN)C(=O)NCC(=O)N[C@@H](CCCCN)C(=O)N[C@@H](CCCCN)C(=O)N[C@@H](CC(N)=O)C(=O)N[C@@H](CC(=O)O)C(=O)N[C@@H](Cc1c[nH]c2ccccc12)C(=O)N[C@@H](CCCCN)C(=O)N[C@@H](Cc1c[nH]cn1)C(=O)N[C@@H](CC(N)=O)C(=O)N[C@H](C(=O)N[C@H](C(=O)N[C@@H](CCC(N)=O)C(=O)O)[C@@H](C)O)[C@@H](C)CC)C(C)C)[C@@H](C)CC", "note": "[GIP, Glucose-dependent Insulinotropic Peptide]", "values": [
      {"measurement": "effect on weight", "setting": "OVX and non-OVX rats, six weeks", "value": "no effect on weight"},
      {"measurement": "weight after six weeks", "setting": "OVX rats (OVX+GIP)", "value": "305.1±5.2", "unit": "grams"},
      {"measurement": "weight after six weeks", "setting": "non-OVX rats (Control+GIP)", "value": "234.5±5.5", "unit": "grams"},
      {"measurement": "blood sugars, GIP versus saline", "setting": "rats, GIP 0.05 mg/kg daily, checked throughout the study", "value": "no statistically significant difference"}
    ]}
  ]
}
